Values of other authors in patent US20040235879A1, “Method for treatment of chemotherapy-induced diarrhea” (priority 2003, published 2004).

Sequences of proteins named here, by UniProt entry; tags and fusion partners are left off.
UniProt P33527, whole entry, species assumed: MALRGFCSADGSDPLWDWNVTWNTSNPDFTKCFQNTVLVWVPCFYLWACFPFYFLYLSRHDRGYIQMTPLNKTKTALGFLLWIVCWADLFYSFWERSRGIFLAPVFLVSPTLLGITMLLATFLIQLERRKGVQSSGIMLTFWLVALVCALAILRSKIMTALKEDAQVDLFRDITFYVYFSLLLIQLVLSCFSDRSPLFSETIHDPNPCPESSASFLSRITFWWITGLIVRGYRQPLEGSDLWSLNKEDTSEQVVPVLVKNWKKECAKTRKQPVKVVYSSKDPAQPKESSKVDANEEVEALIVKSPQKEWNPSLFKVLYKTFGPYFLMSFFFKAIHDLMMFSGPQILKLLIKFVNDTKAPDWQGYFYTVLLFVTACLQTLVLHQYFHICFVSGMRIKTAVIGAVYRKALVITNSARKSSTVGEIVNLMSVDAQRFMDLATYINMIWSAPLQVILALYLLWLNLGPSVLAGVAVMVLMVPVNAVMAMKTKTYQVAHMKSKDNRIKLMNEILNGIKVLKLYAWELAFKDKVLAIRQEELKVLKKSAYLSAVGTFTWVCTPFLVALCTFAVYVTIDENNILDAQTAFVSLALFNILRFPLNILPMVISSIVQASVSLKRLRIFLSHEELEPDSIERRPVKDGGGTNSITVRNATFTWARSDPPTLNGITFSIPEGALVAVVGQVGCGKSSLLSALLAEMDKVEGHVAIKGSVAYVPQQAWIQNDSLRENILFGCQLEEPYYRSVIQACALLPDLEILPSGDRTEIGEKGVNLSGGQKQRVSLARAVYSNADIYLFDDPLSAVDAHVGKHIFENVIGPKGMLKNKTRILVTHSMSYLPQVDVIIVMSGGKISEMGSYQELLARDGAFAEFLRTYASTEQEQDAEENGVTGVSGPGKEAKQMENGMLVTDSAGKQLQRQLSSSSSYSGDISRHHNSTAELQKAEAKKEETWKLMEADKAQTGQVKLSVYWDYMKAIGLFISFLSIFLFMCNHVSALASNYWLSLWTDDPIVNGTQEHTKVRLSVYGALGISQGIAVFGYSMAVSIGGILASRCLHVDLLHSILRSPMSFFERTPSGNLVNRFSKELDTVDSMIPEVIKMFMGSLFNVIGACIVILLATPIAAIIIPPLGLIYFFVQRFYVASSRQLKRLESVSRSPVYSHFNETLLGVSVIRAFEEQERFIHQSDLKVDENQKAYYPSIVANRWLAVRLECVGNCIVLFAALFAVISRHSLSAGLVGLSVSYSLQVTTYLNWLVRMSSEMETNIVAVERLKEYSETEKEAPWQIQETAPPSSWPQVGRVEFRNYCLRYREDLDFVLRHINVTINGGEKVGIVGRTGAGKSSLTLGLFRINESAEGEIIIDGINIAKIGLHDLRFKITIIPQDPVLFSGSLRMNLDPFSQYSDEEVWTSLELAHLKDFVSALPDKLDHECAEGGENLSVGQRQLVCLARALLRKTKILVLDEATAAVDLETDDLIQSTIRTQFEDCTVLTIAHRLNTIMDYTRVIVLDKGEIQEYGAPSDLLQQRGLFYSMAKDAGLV

Target: MRP1 (ABCC1) (Homo sapiens, UniProt P33527)
Conditions: cited from earlier work

## CCc1c2c(nc3ccc(OC(=O)N4CCC(N5CCCCC5)CC4)cc13)-c1cc3c(c(=O)n1C2)COC(=O)[C@]3(O)CC [irinotecan, [1,4′-Bipiperidine]-1′-carboxylic acid (4S)-4,11-diethyl-3,4,12,14-tetrahydro-4-hydroxy-3,14-dioxo-1H-pyrano[3′,4′:6,7]indolizino[1,2-b]quinolin-9-yl ester]
  substrate of MRP1 (ABCC1): substrate
